From PMC6321117, “Sulfonamide Inhibition Studies of a New β-Carbonic Anhydrase from the Pathogenic Protozoan Entamoeba histolytica” (International Journal of Molecular Sciences, 2018) come the findings set out here.

The structures appear in SMILES notation. Values joined by “and” are separate entries in the source; they are usually repeats but may differ in a detail not shown here. Identical values can stand only once.

The first test concerns the target T1, EhiCA (β-carbonic anhydrase) (Entamoeba histolytica, UniProt C4LXK3).
T1 sequence (C4LXK3 1-188): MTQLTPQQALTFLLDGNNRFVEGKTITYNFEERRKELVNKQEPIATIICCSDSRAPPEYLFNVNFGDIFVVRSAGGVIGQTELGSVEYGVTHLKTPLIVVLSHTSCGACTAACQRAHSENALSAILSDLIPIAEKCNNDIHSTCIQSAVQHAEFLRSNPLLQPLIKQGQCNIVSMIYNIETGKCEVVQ
Assay: not given
The following applies: read-out: KI EhiCA; β class, stopped-flow CO2 hydrase assay, 3 different assays, errors 5–10%.
By Ki is commonly meant a measure of affinity in units of concentration, obtained from inhibition or displacement. Consider `Nc1ccc(S(=O)(=O)NCCc2ccc(S(N)(=O)=O)cc2)cc1` [Compound 24], for which the Ki stood at 285 nM.

In the next test the target is T1, EhiCA (β-carbonic anhydrase). As to the kind of experiment: biochemical. The following applies: β class, stopped-flow CO2 hydrase assay, 3 different assays, errors 5–10%.
In the case of `Cc1ccc(S(N)(=O)=O)cc1` [Compound 4], the Ki stood at 833 nM.
The same measure, in the same setting: with `Nc1ccc(S(=O)(=O)Nc2ccc(S(N)(=O)=O)cc2)cc1` [Compound 22] the figure was 331 nM; with `NS(=O)(=O)c1cc(Cl)cc(Cl)c1O` [Compound 10], 4660 nM.
`Nc1ccc(S(N)(=O)=O)cc1Br` [Compound 9] gave a Ki of more than 10000 nM.
Same read-out and setting: in the case of `NS(=O)(=O)c1ccc(CCNS(=O)(=O)c2ccc([N+](=O)[O-])cc2CO)cc1` [Compound 21] it was 368 nM; in that of `NS(=O)(=O)c1ccc(CO)cc1` [Compound 16, 4-hydroxymethyl-benzenesulfonamide], 36 to 89 nM and 89 nM; in that of `NS(=O)(=O)c1cc2c(cc1Cl)NCNS2(=O)=O` [HCT, hydrochlorothiazide], 3400 nM.
Still for that read-out and setting: in the case of `NS(=O)(=O)c1ccc(S(=O)(=O)Nc2cccc3c(Cl)c[nH]c23)cc1` [IND, indisulam] it was 822 nM.
